Test results reported in patent US20120264825A1, “Amino Acid Perhydrates, Process for Their Preparation and Uses thereof” (priority 2009, published 2012).

Conditions: start of peak; 2 degree/min under nitrogen flow
Protocol: TG and DSC studies were performed on Thermobalance, TG50 and differential scanning calorimeter, DSC 822 (Mettler, Toledo) in the range 25-200° C. under nitrogen flow at a heating rate of 2 degree/min.

- exothermic decomposition peak, start (DSC): 80 °C
Substance: Glycine Hydrogen Peroxide Sesquisolvate C2H5NO2.1.5(H2O2) [Example 3]
